# “And” between values parts separate entries of the source, which are not always exact repeats. Equal values may be shown once.
# Amino acid sequences for entries named in this document (tags omitted). Residues count along the entry.
# UniProt P08069, 31-736: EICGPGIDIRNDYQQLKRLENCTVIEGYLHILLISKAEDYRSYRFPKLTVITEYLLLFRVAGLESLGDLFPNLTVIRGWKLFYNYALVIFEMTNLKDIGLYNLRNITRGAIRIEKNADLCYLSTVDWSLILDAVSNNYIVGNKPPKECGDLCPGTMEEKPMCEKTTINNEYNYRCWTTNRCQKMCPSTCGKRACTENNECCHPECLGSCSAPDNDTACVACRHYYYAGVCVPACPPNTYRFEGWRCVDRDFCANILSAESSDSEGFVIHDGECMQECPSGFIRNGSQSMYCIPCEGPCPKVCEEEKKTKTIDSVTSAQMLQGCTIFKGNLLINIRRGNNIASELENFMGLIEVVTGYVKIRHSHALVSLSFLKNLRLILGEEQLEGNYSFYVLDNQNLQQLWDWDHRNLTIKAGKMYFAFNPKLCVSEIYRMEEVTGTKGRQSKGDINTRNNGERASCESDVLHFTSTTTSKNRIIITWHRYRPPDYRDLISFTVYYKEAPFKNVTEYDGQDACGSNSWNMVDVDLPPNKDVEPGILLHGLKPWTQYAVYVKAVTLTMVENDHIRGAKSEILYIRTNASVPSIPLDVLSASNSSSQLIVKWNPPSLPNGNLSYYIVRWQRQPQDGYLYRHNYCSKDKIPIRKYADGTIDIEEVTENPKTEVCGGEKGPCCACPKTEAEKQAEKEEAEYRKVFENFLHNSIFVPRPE
# UniProt P08069, 741-1367 limits assumed: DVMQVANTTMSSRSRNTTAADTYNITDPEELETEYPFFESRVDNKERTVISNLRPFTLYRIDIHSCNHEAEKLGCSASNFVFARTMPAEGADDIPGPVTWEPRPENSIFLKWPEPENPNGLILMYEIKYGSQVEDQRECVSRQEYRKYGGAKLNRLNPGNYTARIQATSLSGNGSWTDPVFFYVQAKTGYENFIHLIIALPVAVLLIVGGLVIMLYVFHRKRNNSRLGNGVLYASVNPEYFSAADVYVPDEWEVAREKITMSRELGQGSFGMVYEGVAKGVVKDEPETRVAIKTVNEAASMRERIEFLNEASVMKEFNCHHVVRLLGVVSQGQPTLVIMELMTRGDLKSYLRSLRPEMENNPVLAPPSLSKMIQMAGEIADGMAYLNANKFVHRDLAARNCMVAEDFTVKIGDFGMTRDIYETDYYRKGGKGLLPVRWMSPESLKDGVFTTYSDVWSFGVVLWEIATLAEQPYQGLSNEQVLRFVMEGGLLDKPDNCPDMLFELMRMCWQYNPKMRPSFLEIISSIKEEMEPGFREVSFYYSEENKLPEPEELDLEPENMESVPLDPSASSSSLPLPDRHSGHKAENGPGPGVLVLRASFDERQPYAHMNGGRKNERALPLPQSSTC
# Columns and labels:
# [1] = stability in CD-1 mouse plasma at 37° C., LC-MS/MS; type: in vitro ADME
# Experimental: In this study, the stability of Test Article F429 in CD-1 mouse plasma was evaluated following incubation at 37° C. for twelve sampling time points. Plasma levels of Test Article F429 were determined by LC-MS/MS, and the results were processed and interpreted (half-life).
# A 150-4 aliquot of Test Article F429 (2.0 mg/mL) was added into 2850 μL of CD-1 mouse plasma, for a final concentration of Test Article F429 at 100 μg/mL. The sample was mixed and immediately put into a 37° C. reciprocal shaking water bath (Precision, Winchester, Va.). Triplicate 75-4 aliquots were sampled at twelve sample time points (blank test article, 1, 2, 5, 10, 15, 20, 30, 60 min and 2, 4 and 24 hrs). The aliquots were immediately frozen at −80° C.
# All mouse plasma samples were diluted two-fold with in-house blank CD-1 mouse plasma. Then, aliquots (50 pt) of mouse plasma and spiked F429 mouse plasma samples were added into 200 μl of water, then combined with 250 μL of pH 7.4, 10 mM phosphate buffer solution and mixed well. The final volume of the prepared solution was 500 μL, which was ready for solid phase extraction sample preparation.
# The Strata X 96-well plates solid phase extraction cartridge (8E-S100-TGB, Phenomenex) was placed on a vacuum manifold with the vacuum set to 5 mm Hg for sample preparation. The plate was first conditioned with 1.0 mL of acetonitrile following the equilibration with 1.0 mL of water. Then 500 μL of samples were loaded onto the plate and later were washed twice with 0.5 mL of 5% acetonitrile in water. The receiver was replaced with a 96-deep well collection plate. The cartridge was then eluted with 80% acetonitrile in water containing 1% ammonium hydroxide twice. A 100-μL aliquot of each of the eluted samples was transferred to vials for analysis by LC-MS/MS. Quantification of the test article, F429, in mouse plasma was performed against calibration curves generated by spiking the test article into blank mouse plasma (100, 75, 50, 37.5, 25, 10, 5, and 2.5 μg/mL final concentrations).
# An eight-point standard curve in triplicate at each concentration level was interspersed with the samples during each run. At least the two closest determinations for each concentration were used to generate the calibration curve. The acceptance criteria were that five out of eight standards must be within ±30% for the stability plasma sample analysis.
# Individual rat plasma concentrations of Test Article F429 vs. time data, as well as mean data for each dosing group, are shown in Tables 19 and 20. The plots of the individual and mean plasma concentration of F429 versus time following the incubation of 100 μg/mL F429 are shown in FIG. 13 and FIG. 14. All samples that were below the limit of quantification were assigned a value of zero. All data are expressed as μg/mL of the F429 free drug.
# [2] = target: MCF7 cells (Homo sapiens, UniProt P08069); type: cell-based; conditions: read-out: Cell; Table 10, antagonism in MCF7 cells
# Experimental: Additional binding and antagonism assays using candidate peptides were performed. […] Cell viability was determined by luminescence assay and IC50 was calculated using standard techniques.
# [3] = toxicity study in MiaPaCa tumor-bearing nude mice; type: in vivo; conditions: 500 ug/injection (20 mg/kg) subcutaneous 4 times per week for 3 weeks; body weight; FIG. 20
# Experimental: Nude mice were inoculated with MiaPaCa cells (one million cells in matrigel) on the flank and followed until tumors reached a volume of greater than 100 mm^3. Animals were randomized and placed into 3 treatment groups: control (no injections), vehicle, ANT-429 and vehicle at 500 ug/injection (20 mg/kg). Animals were injected by the subcutaneous route 4 times per week for 3 weeks and followed for an additional 2 weeks without injections. Tumors and body weight were measured twice weekly.
# [4] = target: T1, HIGF-1R (Homo sapiens, UniProt P08069); experiment: IGF-1R affinity, scintillation proximity assay (SPA assay), 125I-IGF1 displacement; type: binding; conditions: read-out: HIGFIR Affinity (SPA-assay); IC50 for binding used as a measure of Kd
# T1 construct: HIGF-1R was purified from a cell culture of BHK cells stably transfected with IGF-1R cDNA; made in house; host or cells: BHK cells stably transfected with IGF-1R cDNA
# Experimental: In certain cases, a scintillation proximity assay (SPA assay) was used to determine IGF-1R affinity. Briefly, anti-mouse SPA beads were mixed with an HIGF-1R antibody (24-31) and WGA-purified HIGF-1R from transfected cells. The binding buffer was 0.1 M Hepes, pH 7.8, 0.1 M NaCl, 10 mM MgCl2, 0.025% Tween-20, 0.5% BSA. To this mixture was added ^125I-IGF1 and a dilution series of IGF1 or the peptide to be determined.
# [5] = CD-1 mouse plasma, incubation of 100 μg/mL F429, incubation time 0 min
# [6] = CD-1 mouse plasma, incubation of 100 μg/mL F429, incubation time 1 min
# [7] = CD-1 mouse plasma, incubation of 100 μg/mL F429, incubation time 2 min
# [8] = CD-1 mouse plasma, incubation of 100 μg/mL F429, incubation time 5 min
# [9] = CD-1 mouse plasma, incubation of 100 μg/mL F429, incubation time 10 min
# [10] = CD-1 mouse plasma, incubation of 100 μg/mL F429, incubation time 15 min
# [11] = CD-1 mouse plasma, incubation of 100 μg/mL F429, incubation time 20 min
# [12] = CD-1 mouse plasma, incubation of 100 μg/mL F429, incubation time 30 min
# [13] = CD-1 mouse plasma, incubation time 0 min
# [14] = CD-1 mouse plasma, incubation time 1 min
# [15] = CD-1 mouse plasma, incubation time 2 min
# [16] = CD-1 mouse plasma, incubation time 5 min
# [17] = CD-1 mouse plasma, incubation time 10 min
# [18] = CD-1 mouse plasma, incubation time 15 min
# [19] = CD-1 mouse plasma, incubation time 20 min
# [20] = CD-1 mouse plasma, incubation time 30 min
# [21] = CD-1 mouse plasma, incubation time 60 min
# [22] = CD-1 mouse plasma, incubation time 120 min
# [23] = CD-1 mouse plasma, incubation time 240 min
sequence,measurement,setting,value
DFYGCLLDLSLGVPSLGWRRRCITA [Peptide F429],stability half-life in CD-1 mouse plasma,"[1]; 37° C., 100 μg/mL",1.22 h
same,remaining percentage,"[1]; CD-1 mouse plasma, 37° C., at 4 hours",9.65%
same,Calculated Conc. (individual sample),[1]; [5],65.5 µg/mL and 72.2 µg/mL and 76.8 µg/mL
same,Mean Calculated Conc. (n = 3),[1]; [5],71.5 µg/mL
same,Calculated Conc. (individual sample),[1]; [6],59.3 µg/mL and 60.6 µg/mL and 49.7 µg/mL
same,Mean Calculated Conc. (n = 3),[1]; [6],56.5 µg/mL
same,Calculated Conc. (individual sample),[1]; [7],56.6 µg/mL and 57.9 µg/mL and 66.8 µg/mL
same,Mean Calculated Conc. (n = 3),[1]; [7],60.4 µg/mL
same,Calculated Conc. (individual sample),[1]; [8],68.6 µg/mL and 67.0 µg/mL and 59.7 µg/mL
same,Mean Calculated Conc. (n = 3),[1]; [8],65.1 µg/mL
same,Calculated Conc. (individual sample),[1]; [9],63.0 µg/mL and 64.3 µg/mL and 61.7 µg/mL
same,Mean Calculated Conc. (n = 3),[1]; [9],63.0 µg/mL
same,Calculated Conc. (individual sample),[1]; [10],60.4 µg/mL and 60.0 µg/mL and 61.8 µg/mL
same,Mean Calculated Conc. (n = 3),[1]; [10],60.7 µg/mL
same,Calculated Conc. (individual sample),[1]; [11],63.9 µg/mL and 62.4 µg/mL and 56.9 µg/mL
same,Mean Calculated Conc. (n = 3),[1]; [11],61.1 µg/mL
same,Calculated Conc. (individual sample),[1]; [12],58.0 µg/mL and 58.3 µg/mL and 57.7 µg/mL
same,Mean Calculated Conc. (n = 3),[1]; [12],58.0 µg/mL
same,Mean Calculated Conc. (n = 3),"[1]; CD-1 mouse plasma, incubation of 100 μg/mL F429, incubation time 60 min",43.2 µg/mL
same,Calculated Conc. (individual sample),"[1]; CD-1 mouse plasma, incubation of 100 μg/mL F429, incubation time 60 min (1 hr)",39.9 µg/mL and 49.4 µg/mL and 40.2 µg/mL
same,Mean Calculated Conc. (n = 3),"[1]; CD-1 mouse plasma, incubation of 100 μg/mL F429, incubation time 120 min",21.1 µg/mL
same,Calculated Conc. (individual sample),"[1]; CD-1 mouse plasma, incubation of 100 μg/mL F429, incubation time 120 min (2 hr)",21.7 µg/mL and 19.6 µg/mL and 21.9 µg/mL
same,Mean Calculated Conc. (n = 3),"[1]; CD-1 mouse plasma, incubation of 100 μg/mL F429, incubation time 240 min",6.90 µg/mL
same,Calculated Conc. (individual sample),"[1]; CD-1 mouse plasma, incubation of 100 μg/mL F429, incubation time 240 min (4 hr)",5.41 µg/mL and 8.02 µg/mL and 7.26 µg/mL
same,Calculated Conc. (individual sample),"[1]; CD-1 mouse plasma, incubation of 100 μg/mL F429, incubation time 1440 min (24 hr)",blq and 2.98 ug/mL
same,Mean Calculated Conc. (n = 3),"[1]; CD-1 mouse plasma, incubation of 100 μg/mL F429, incubation time 1440 min, blq assigned a value of zero",0.00 µg/mL
same,Ln (logarithm of the remaining percentage),[1]; [13],4.61
same,Remaining (%) from time zero,[1]; [13],100%
same,Ln (logarithm of the remaining percentage),[1]; [14],4.37
same,Remaining (%) from time zero,[1]; [14],79.1%
same,Ln (logarithm of the remaining percentage),[1]; [15],4.44
same,Remaining (%) from time zero,[1]; [15],84.5%
same,Ln (logarithm of the remaining percentage),[1]; [16],4.51
same,Remaining (%) from time zero,[1]; [16],91.0%
same,Ln (logarithm of the remaining percentage),[1]; [17],4.48
same,Remaining (%) from time zero,[1]; [17],88.1%
same,Ln (logarithm of the remaining percentage),[1]; [18],4.44
same,Remaining (%) from time zero,[1]; [18],84.9%
same,Ln (logarithm of the remaining percentage),[1]; [19],4.45
same,Remaining (%) from time zero,[1]; [19],85.4%
same,Ln (logarithm of the remaining percentage),[1]; [20],4.40
same,Remaining (%) from time zero,[1]; [20],81.1%
same,Ln (logarithm of the remaining percentage),[1]; [21],4.10
same,Remaining (%) from time zero,[1]; [21],60.4%
same,Ln (logarithm of the remaining percentage),[1]; [22],3.38
same,Remaining (%) from time zero,[1]; [22],29.5%
same,Ln (logarithm of the remaining percentage),[1]; [23],2.27
same,Remaining (%) from time zero,[1]; [23],9.65%
same,Remaining (%) from time zero,"[1]; CD-1 mouse plasma, incubation time 1440 min",0.0%
same,IC50,[2],12 to 558 nM
same,adverse effects,[3],None of the animals treated with ANT-429 demonstrated any apparent adverse effects
same,Kd,[4],0.63 nM

# Reference: patent publication US20110039779A1, “IGF-1R BINDING PROTEINS AND ANTAGONISTS” (priority 2007, published 2011)
